Measured values reported in PubChem BioAssay AID1195 (EPA DSSTox, 2008).

Tested on: human maximum recommended daily dose, FDA database
Assay: DSSTox (FDAMDD) FDA Maximum (Recommended) Daily Dose Database
Details: active compounds read low
Excerpt: The Food and Drug Administration (FDA) Center for Drug Evaluation and Research, Office of Pharmaceutical Science, Informatics and Computational Safety Analysis Staff's Maximum Recommended Daily Dose (FDAMDD) database contains values for over 1200 pharmaceuticals listed in Martindale: The Extra Pharmacopoeia (1973, 1983, and 1993) and The Physicians' Desk Reference (1995 and 1999). Some classes of chemicals were excluded from the FDAMDD database due to their unsuitability for most QSAR modeling programs. These were inorganic chemicals, high molecular weight polymers (>5000 Daltons), fibers, salts, mixtures of organic chemicals, and small molecules (<100 Daltons). FDAMDD is the non-proprietary portion of the database that was used in the QSAR analysis reported in the Main Citation. DSSTox FDAMDD has fewer substance records than the original MRDD Source database due to consolidation of partial structures (i.e., complexed entities) into a single record and elimination of duplicate entries. […]
Maximum recommended daily dose (or maximum recommended therapeutic dose) values were determined from pharmaceutical clinical trials that employed an oral route of exposure and daily treatments, usually for 3-12 months. […]

CCC(=O)N(c1ccccn1)C(C)CN1CCCCC1 (configuration not stated)
maximum recommended daily dose (mmol/kg-bw/day) (TherapeuticCategory: narcotic analgesic): 0.00908

CC(C)N1CCC(N(C(=O)Cc2ccccc2)c2ccc(Cl)cc2)CC1
maximum recommended daily dose (mmol/kg-bw/day) (TherapeuticCategory: cardiac depressant): 0.018
